Experimental findings from patent publication US20030022283A1 are described below.

In this test the target is T1, Rat NPY Y2 receptor (clone) (rat), Q9ERC0.
T1 chain: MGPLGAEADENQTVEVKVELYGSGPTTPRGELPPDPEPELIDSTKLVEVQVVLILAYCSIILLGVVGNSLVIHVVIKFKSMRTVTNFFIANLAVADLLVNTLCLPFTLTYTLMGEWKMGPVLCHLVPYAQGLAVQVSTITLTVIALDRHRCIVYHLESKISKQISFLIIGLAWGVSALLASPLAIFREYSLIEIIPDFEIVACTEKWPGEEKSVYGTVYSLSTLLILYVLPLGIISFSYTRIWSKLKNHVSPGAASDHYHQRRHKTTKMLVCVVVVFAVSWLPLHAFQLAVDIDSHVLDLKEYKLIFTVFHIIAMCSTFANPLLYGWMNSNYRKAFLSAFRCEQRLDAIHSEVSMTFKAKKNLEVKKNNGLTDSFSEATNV
The experiment in a line: competition with [125I]PYY, rat Y2 clone. To be noted: remark: other sources report otherwise.

For the molecule HYINLITRQRY (peptide, UniProt P01303 54-64, looked up) [rat/human (26-36)NPY, P01303 54-64], the IC50 (as a rule, the concentration that gives 50% inhibition) came to 84 nM.
